Drawing on patent US8754089B2, “Heterocyclic compounds and their uses” (Amgen Inc., priority 2009, dated 2014), this text covers Ki and IC50 for nine compounds.

Chains of the proteins cited; added tags and fusions are not shown. Lines headed by an entry give the natural chain unless they say otherwise; changes in a name come on top.
UniProt O00329: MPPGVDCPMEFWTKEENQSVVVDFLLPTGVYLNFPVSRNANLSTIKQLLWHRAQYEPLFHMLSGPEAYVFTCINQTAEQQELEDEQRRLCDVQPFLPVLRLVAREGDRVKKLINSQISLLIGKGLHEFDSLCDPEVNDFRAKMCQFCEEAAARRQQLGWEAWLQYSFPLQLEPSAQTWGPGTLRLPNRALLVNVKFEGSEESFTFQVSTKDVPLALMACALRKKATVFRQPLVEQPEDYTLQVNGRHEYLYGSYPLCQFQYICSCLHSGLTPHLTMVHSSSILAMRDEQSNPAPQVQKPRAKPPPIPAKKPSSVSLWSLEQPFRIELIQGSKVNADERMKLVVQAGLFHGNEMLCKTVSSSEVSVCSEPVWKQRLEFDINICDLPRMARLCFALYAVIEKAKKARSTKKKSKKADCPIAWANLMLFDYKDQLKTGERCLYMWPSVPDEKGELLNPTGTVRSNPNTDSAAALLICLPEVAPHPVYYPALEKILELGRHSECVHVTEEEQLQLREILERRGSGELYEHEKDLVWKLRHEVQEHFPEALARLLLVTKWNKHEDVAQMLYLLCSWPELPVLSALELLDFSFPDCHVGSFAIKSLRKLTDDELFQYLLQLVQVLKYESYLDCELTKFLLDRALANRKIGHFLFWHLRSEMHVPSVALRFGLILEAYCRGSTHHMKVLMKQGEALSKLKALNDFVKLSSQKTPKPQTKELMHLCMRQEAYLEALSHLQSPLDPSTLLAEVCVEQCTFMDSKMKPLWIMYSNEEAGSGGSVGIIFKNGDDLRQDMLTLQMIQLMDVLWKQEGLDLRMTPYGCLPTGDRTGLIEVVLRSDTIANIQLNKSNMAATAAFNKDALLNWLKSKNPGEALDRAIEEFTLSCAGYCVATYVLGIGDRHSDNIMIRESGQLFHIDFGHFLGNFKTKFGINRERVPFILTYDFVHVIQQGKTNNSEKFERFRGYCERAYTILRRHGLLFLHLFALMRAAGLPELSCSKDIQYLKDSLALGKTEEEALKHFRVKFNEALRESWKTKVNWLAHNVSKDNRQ
UniProt P42338, whole entry, looked up, species assumed: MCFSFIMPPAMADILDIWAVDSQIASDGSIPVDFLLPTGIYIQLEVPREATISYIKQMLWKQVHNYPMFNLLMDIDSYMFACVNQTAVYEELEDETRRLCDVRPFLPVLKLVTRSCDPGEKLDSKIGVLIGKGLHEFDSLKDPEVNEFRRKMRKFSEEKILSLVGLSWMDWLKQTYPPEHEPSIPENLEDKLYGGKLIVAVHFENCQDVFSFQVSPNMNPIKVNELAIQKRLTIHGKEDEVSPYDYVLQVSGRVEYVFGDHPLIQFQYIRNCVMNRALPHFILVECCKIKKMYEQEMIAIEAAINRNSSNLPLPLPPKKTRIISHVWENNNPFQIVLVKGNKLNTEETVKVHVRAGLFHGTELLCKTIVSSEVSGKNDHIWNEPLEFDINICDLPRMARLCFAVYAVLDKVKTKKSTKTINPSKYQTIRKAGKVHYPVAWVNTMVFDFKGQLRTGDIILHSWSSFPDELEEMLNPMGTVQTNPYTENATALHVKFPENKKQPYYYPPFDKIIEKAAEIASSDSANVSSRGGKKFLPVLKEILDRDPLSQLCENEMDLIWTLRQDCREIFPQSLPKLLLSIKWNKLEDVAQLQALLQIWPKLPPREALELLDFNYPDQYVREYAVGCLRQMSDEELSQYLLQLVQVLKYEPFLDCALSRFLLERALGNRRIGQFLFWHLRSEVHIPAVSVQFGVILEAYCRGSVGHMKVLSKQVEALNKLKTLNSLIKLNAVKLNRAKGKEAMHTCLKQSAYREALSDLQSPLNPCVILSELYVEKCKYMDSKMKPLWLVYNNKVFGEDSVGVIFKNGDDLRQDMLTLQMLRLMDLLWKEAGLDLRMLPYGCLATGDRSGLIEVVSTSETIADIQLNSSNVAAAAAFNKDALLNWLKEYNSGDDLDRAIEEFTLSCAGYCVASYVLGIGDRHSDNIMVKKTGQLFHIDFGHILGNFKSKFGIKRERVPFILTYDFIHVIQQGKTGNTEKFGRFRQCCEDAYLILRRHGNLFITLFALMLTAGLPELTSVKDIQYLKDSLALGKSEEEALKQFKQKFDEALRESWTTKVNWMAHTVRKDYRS

As a reminder, the Ki is the dissociation constant of the complex between target and ligand, obtained from inhibition or displacement. Lower therefore signals a stronger hold on the target.

One experiment addresses PI3Kδ (Homo sapiens (Human), UniProt O00329). Briefly: PI3Kδ Alphascreen assay. Type of experiment: biochemical.
A further experiment concerns the target p110β (Homo sapiens (Human), UniProt P42338). The settings on record: read-out: potency on beta; cited from earlier work.

`C[C@H](Nc1ncnc(N)c1C#N)c1[nH]c2ccc(F)cc2c(=O)c1-c1cc(F)cc(F)c1` [4-amino-6-(((1S)-1-(3-(3,5-difluorophenyl)-6-fluoro-4-oxo-1,4-dihydro-2-quinolinyl)ethyl)amino)-5-pyrimidinecarbonitrile] returned a Ki at PI3Kδ of 63.7 nM. Compound `C[C@@H](Nc1ncnc2[nH]cnc12)c1nc2ccc(F)cn2c(=O)c1-c1cccc(F)c1` [7-fluoro-3-(3-fluorophenyl)-2-((1R)-1-(9H-purin-6-ylamino)ethyl)-4H-pyrido[1,2-a]pyrimidin-4-one] registered a Ki at PI3Kδ of 19800 nM. The same measure, in the same setting: then `C[C@H](Nc1ncnc2[nH]cnc12)c1nc2ccc(F)cn2c(=O)c1-c1ccccn1` [7-fluoro-2-((1S)-1-(9H-purin-6-ylamino)ethyl)-3-(2-pyridinyl)-4H-pyrido[1,2-a]pyrimidin-4-one], with 184 nM; and `Cc1cccc2nc(C(C)Nc3ncnc4[nH]cnc34)c(-c3ccccn3)c(=O)n12` (stereo not drawn) [6-methyl-2-(1-(9H-purin-6-ylamino)ethyl)-3-(2-pyridinyl)-4H-pyrido[1,2-a]pyrimidin-4-one], with 80.2 nM. The same measure, in the same setting: in the case of `CC(Nc1ncnc2[nH]cnc12)c1nc2ccc(F)cn2c(=O)c1-c1cccc(F)c1` (racemic) [7-fluoro-3-(3-fluorophenyl)-2-(1-(9H-purin-6-ylamino)-ethyl)-4H-pyrido[1,2-a]pyrimidin-4-one] it was 360 nM. Take `CC(Nc1ncnc(N)c1C#N)c1nc2ccccn2c(=O)c1-c1ccccc1` (racemic) [4-amino-6-((1-(4-oxo-3-phenyl-4H-pyrido[1,2-a]pyrimidin-2-yl)ethyl)amino)-5-pyrimidinecarbonitrile]: the affinity at PI3Kδ, expressed as Ki, was 15.9 nM.

The compound `C[C@@H](Nc1ncnc(N)c1C#N)c1nc2ccccn2c(=O)c1-c1ccccc1` [4-amino-6-(((1R)-1-(4-oxo-3-phenyl-4H-pyrido[1,2-a]pyrimidin-2-yl)ethyl)amino)-5-pyrimidinecarbonitrile] registered a Ki at PI3Kδ of 6320 nM. Take `Cc1cc(C(C)Nc2ccccc2)c2nc(N3CCOCC3)cc(=O)n2c1` (stereo not drawn) [TGX-221]: the IC50 on p110β is 7 nM. On to `C[C@@H](Nc1ncnc2[nH]cnc12)c1nc2ccc(F)cn2c(=O)c1-c1ccccn1` [7-fluoro-2-((1R)-1-(9H-purin-6-ylamino)ethyl)-3-(2-pyridinyl)-4H-pyrido[1,2-a]pyrimidin-4-one], for which the Ki on PI3Kδ came to 21500 nM.
